According to patent publication US4710578A, “Isothiuronium salts” (Peremartoni Vegyipari Vallalat, priority 1984, dated 1987):

Columns and labels:
[1] = system: tumor cells; test: Testing of antitumor effect (overall)
[2] = system: NK-ly-ascites lymphoma; test: NK-ly-ascites lymphoma in vivo; design: species or system CFLP male mice; details: dose-dependant
[3] = system: NK-yl ascites tumor; test: Combinations with known cytostatic agents in NK-ly ascites tumor; type: in vivo, CFLP mice; details: with cyclophosphamide, carnomustine, degranol, dibromo dulcitol or dibromo mannitol

SMILES | Antitumor effect [1] | Survival rate and lifetime [2] | Antitumor effect of combination vs cytostatic agent alone [3] | Immunodepression of combination vs cytostatic agent alone [3]
N=C(N)NC(=N)SCCBr | outstanding antitumor effect | increase survival rate and lifetime in a dose-dependant manner | the antitumor effect was strengthened | immunodepression decreased
N=C(N)NC(=N)SCCCl | outstanding antitumor effect | increase survival rate and lifetime in a dose-dependant manner | the antitumor effect was strengthened | immunodepression decreased
